We go through one compound from publication PMC7129073 (Clinical Microbiology and Infection, 2015).

The test system of this experiment is Staphylococcus coagulase negative (CNS). Put plainly: Susceptibility testing. Format: cell-based. Particulars: conjunctival isolates 2000–2004.

Turning to `NC[C@H]1O[C@H](O[C@H]2[C@H](O)[C@@H](O[C@H]3O[C@H](CO)[C@@H](O)[C@H](N)[C@H]3O)[C@H](N)C[C@@H]2N)[C@H](N)C[C@@H]1O` [tobramycin], the resistant isolates came to 25.6%.
